Target: T1, Neutrophil elastase (Homo sapiens, UniProt P08246)
T1 sequence (P08246 whole entry): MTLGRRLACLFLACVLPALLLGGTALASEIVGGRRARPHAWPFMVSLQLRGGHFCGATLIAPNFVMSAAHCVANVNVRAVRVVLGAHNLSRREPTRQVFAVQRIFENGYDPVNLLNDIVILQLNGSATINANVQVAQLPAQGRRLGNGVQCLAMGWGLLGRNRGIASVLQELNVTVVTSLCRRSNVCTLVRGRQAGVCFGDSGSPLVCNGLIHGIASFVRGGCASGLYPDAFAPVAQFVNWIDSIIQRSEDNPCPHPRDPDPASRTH

## CC(=O)C1=C(C)N(c2cccc(C(F)(F)F)c2)C(=O)N[C@H]1c1ccc(C#N)nc1 [BAY-677]
  IC50: > 2000 nM
